Tests used:
[1] = Micelle-facilitated solubilization of JP4-039; conditions: sufficient carrier-to-drug ratios; no crystal formation
[2] = Particle size measurement by laser dynamic light scattering; assay type: physicochemical; conditions: JP4-039 loaded micelles
Experimental: 1(f). Particle size measurement. […] Samples were further diluted ten times in distilled water and sizes were measured by laser dynamic light scattering using a particle sizer (Zetasizer Nano ZS instrument, available from Malvern Instruments Ltd of Worcestershire, United Kingdom). Size measurement of emulsion particles were conducted using a Coulter N4 particle sizer after a 100-fold dilution in saline.

Substance | Stability of JP4-039 mixed micelle formulation over time [1] | Particle Sizes w/JP4-039 [2]
Monomethoxy PEG2,000-α-Fmoc-ε-Oleoyl Lysine [lipopeptide 1] | unstable over time | –
Monomethoxy PEG5,000-lysyl-[lysyl-(α-Fmoc-ε-oleoyl lysine)2]2 [lipopeptide 4] | > one month | 128.6 +/− 5.9 nm

Reference: patent US20190038556A1, “FORMULATIONS AND CARRIER SYSTEMS INCLUDING COMPOUND INTERACTIVE DOMAINS” (University of Pittsburgh - Of The Commonwealth System of …, priority 2012, published 2019)
